Experimental data published in article PMC10861881 (Proceedings of the National Academy of Sciences of the …, 2024).

By UniProt entry, the sequences of proteins in these tests, tags left out. Where a name states a change or a piece, a line headed by the entry shows the natural chain unless it says otherwise.
UniProt Q12809: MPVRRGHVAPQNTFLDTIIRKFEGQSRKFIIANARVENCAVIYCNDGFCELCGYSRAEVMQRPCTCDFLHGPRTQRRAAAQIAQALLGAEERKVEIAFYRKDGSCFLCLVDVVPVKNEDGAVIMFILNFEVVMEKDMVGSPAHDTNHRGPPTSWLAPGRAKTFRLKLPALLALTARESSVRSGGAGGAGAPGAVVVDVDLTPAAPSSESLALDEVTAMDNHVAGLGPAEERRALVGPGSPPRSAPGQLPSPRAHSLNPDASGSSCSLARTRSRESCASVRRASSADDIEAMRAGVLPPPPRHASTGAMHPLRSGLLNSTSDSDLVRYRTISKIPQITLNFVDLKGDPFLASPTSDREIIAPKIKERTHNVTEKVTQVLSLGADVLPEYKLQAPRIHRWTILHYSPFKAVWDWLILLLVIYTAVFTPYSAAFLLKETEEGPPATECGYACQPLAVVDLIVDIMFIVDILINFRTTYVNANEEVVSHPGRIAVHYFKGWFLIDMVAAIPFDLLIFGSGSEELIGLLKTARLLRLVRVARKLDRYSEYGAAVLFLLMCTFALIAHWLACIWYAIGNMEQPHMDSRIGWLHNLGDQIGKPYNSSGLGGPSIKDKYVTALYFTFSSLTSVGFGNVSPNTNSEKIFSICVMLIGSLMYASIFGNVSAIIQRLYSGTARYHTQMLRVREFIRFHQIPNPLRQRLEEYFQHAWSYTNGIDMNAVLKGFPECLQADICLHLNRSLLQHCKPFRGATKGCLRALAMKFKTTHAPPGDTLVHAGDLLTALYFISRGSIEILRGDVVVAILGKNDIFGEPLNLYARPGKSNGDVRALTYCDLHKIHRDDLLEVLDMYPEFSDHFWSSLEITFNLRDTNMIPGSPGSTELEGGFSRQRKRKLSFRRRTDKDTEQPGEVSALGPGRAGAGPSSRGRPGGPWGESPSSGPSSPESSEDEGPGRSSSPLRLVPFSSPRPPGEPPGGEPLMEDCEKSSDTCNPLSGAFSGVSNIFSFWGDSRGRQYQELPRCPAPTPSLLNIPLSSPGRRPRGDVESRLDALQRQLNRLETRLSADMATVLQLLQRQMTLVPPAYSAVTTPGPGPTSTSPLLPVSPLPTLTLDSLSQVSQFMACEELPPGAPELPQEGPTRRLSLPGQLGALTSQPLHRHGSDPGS

What was measured:
PK study IV/PO, rat = settings: Sprague-Dawley, in vivo
hERG = hERG (Homo sapiens, UniProt Q12809)

- clearance (PK study IV/PO, rat): 60 mL/min/kg
SMILES: C=C(C)C(=O)Nc1ccc(-c2c(-c3ccc(Oc4nccc(C)n4)c(F)c3)c3c(N)ncnc3n2C)cc1 [Lirafugratinib]
- IC50 (hERG): 16 µM
